Values of other authors in patent publication US10456439B2, “NK3 agonist for use in the treatment of a patient suffering from atrial arrhythmia or fibrillation” (priority 2014, dated 2019).

The chains behind the UniProt entries cited, without tags or fusion partners.
UniProt P21452, whole entry, species assumed: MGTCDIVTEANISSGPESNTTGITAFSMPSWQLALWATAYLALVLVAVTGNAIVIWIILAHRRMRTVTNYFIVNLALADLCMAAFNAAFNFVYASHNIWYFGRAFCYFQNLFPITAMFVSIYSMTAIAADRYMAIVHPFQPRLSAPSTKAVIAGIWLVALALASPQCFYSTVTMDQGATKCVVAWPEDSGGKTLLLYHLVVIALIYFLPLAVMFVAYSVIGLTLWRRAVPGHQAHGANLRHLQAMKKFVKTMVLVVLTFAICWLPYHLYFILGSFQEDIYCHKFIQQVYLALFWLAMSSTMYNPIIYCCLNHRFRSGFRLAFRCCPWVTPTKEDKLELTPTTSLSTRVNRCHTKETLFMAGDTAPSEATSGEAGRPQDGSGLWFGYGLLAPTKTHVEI

What was measured:
NK2-receptor [1] = biological target: T1, NK2-receptor (Homo sapiens, UniProt P21452); conditions: cited from earlier work
NK2-receptor [2] = biological target: T1, NK2-receptor; conditions: cited from earlier work; remark: listed apart in the source

## Neurokinin A: compound having CAS registry No. 86933-74-6
NK2-receptor [1]
  NK2-receptor Affinity (pK1): 8.0-9.1 pK1
NK2-receptor [2]
  NK2-receptor Affinity (pEC50): 8.89 pEC50
